Reference: patent US20200347147A1

Protein sequences, listed by entry. Tags and fused reporters are not part of them. Residues count along the entry.
UniProt P06731, 35-685 limits assumed: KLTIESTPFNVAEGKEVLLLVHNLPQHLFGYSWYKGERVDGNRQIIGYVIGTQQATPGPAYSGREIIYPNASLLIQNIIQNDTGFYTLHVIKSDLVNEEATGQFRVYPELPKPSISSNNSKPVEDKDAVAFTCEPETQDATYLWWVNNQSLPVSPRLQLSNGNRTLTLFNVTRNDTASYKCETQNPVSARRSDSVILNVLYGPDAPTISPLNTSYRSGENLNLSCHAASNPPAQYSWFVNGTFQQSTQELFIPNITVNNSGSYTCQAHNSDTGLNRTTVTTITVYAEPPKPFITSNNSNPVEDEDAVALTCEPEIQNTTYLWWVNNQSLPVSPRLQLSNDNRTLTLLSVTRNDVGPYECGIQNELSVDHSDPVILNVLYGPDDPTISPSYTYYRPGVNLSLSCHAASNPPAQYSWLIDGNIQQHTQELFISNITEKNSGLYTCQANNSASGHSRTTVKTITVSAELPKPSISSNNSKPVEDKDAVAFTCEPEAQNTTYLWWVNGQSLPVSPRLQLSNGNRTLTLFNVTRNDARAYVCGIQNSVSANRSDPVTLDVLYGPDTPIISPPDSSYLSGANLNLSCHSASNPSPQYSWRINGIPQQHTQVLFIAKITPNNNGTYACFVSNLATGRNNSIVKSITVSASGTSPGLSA

Target: human Carcinoembryonic antigen (CEA), also known as Carcinoembryonic antigen-related cell adhesion molecule 5 (human) (UniProt P06731)
Assay: flow cytometry on CEA-expressing MKN45 cells, PE anti-human Fc secondary

EC50: 0.99 µg/mL
Substance: Parental chimeric T84.66 IgG (antibody)
